Results published in patent US20210260106A1, “CHLORITE-CONTAINING COMPOSITIONS” (ClearCrescent Technologies, LLC, priority 2008, published 2021).

How the values were obtained:
[1] = SC applied to section of subject's back, irritation; assay type: in vivo, human; settings: 1.80% SC; observed at 15 minute and 40 minute intervals
Description: 1.80% SC liquid was applied to a 1″ tall by 2.5″ wide section of subject's back and observed at 15 minute and 40 minute intervals.

[2] = tested on: human cells in tissue culture
[3] = preliminary testing

## sodium chlorite
[1]
  redness or irritation of back skin: no sign of redness or report of irritation
[2]; 0.5% sodium chlorite, listed as Sodium Chlorite
  Toxicity (human cells): None
[2]; 2.0% sodium chlorite
  Toxicity (human cells): marginally toxic
[2]; 2.0% sodium chlorite, listed as Sodium Chlorite
  Toxicity (human cells): Toxic
[3]
  concentration tolerated in mucous membranes: ≤ 2%

Read-outs that look alike come from different tables or passages of the source.
